{
  "sequences": {"note": "The chains behind the UniProt entries cited, without tags or fusion partners.", "UniProt P35372, whole entry": "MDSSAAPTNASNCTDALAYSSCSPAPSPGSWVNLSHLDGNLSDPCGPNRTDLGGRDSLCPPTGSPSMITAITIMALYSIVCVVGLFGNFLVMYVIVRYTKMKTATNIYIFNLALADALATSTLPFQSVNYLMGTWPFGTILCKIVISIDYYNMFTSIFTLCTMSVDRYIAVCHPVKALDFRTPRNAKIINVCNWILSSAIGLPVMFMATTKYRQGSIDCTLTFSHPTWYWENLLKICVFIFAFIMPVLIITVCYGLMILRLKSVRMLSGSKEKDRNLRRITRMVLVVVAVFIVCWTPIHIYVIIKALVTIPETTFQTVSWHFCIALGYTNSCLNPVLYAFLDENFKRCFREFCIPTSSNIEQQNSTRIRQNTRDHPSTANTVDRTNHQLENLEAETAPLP", "UniProt P41143, whole entry": "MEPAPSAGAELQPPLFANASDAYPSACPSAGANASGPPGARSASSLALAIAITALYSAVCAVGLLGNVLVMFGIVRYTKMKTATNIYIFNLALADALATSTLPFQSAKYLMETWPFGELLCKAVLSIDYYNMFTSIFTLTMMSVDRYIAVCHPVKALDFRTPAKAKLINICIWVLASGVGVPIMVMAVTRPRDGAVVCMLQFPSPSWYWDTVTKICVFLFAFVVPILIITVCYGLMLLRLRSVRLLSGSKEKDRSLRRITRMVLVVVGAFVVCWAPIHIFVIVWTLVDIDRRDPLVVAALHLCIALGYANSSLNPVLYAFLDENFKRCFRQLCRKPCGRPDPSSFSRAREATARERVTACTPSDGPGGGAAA"},
  "source": "ChEMBL document CHEMBL1152717",
  "about": "“Discovery of mu-opioid selective ligands derived from 1-aminotetralin scaffolds made via metal-catalyzed ring-opening reactions” (Bioorg Med Chem Lett, 2009)",
  "key": {"Mu-type opioid receptor [1]": {"biological_target": "T1, Mu-type opioid receptor (Homo sapiens, UniProt P35372)", "assay": "Activity at human cloned mu opioid receptor assessed as reversal of DAMGO-induced [35S]GTPgammaS binding", "assay_type": "functional"}, "Mu-type opioid receptor [2]": {"biological_target": "T1, Mu-type opioid receptor", "assay": "Displacement of [125I]FK33824 from human cloned mu opioid receptor"}, "[3]": {"biological_target": "Delta-type opioid receptor (Homo sapiens, UniProt P41143)", "assay": "Displacement of [125I]deltorphin 2 from human cloned delta opioid receptor"}},
  "note": "pIC50: −log10 of the molar value.",
  "data": [
    {"smiles": "COCCN[C@@H]1c2ccccc2CC[C@H]1c1ccsc1", "values": [
      {"measurement": "pIC50", "setting": "Mu-type opioid receptor [1]", "result": 4.72}
    ]},
    {"smiles": "COCCN[C@H]1c2ccccc2CC[C@@H]1c1ccsc1", "values": [
      {"measurement": "pIC50", "setting": "Mu-type opioid receptor [2]", "result": 6.11}
    ]},
    {"smiles": "COCCNC1c2ccccc2CCC1c1ccsc1", "note": "(racemic)", "values": [
      {"measurement": "pIC50", "setting": "[3]", "result": 5.15}
    ]}
  ]
}
